Laboratory results from ChEMBL document CHEMBL4007382, “Design, synthesis and biological evaluation of bambuterol analogues as novel inhibitors of butyrylcholinesterase” (Eur J Med Chem, 2017).

How the values were obtained:
[1] = Selectivity ratio of Ki for human plasma BuChE assessed as second order carbamylation rate constant to Ki for equine serum BuChE assessed as second order carbamylation rate constant
[2] = Selectivity ratio of decarbamylation rate constant for human plasma BuChE to decarbamylation rate constant for equine serum BuChE
[3] = species: Homo sapiens; experiment: Selectivity ratio of IC50 for human blood AChE to IC50 for human blood BuChE

Structure (SMILES): CN(C)C(=O)Oc1cc(OC(=O)N(C)C)cc(C(O)CNC(C)(C)C)c1 (stereo not drawn) [BAMBUTEROL]
- Ratio Ki [1]: 50
- Selectivity ratio [2]: 5
- Ratio IC50 [3]: 10000
